Experimental data reported in article PMC10118286 (Journal of medicinal chemistry, 2021).

Tested on: CK1
Settings: read-out: CK1 inhibitory profile (IC50); triplicate, mean ± SD

## O=C(O)c1ccc2c(c1)nc(Nc1cccc(Cl)c1)c1ccncc12 [Compound 18, CX-4945, reference compound]
  IC50: > 10 µM
